Data reported in BindingDB's records for doi:10.1016/j.bmcl.2013.05.024 (Janssen Research and Development, 2014).

Assay: Antagonist activity at CCR2 receptor in human THP1 cells assessed as inhibition of MCP-1 induced chemotaxis after 3 hrs

## COC1COCCC1N[C@@H]1C[C@H]2CN(C)C[C@@]2(C(=O)N2CCc3ncc(C(F)(F)F)cc3C2)C1 (mixture of isomers)
  IC50: 320 nM

## COC1COCCC1N[C@@H]1C[C@H]2CN(C(=O)/C=C/c3ccccc3)C[C@@]2(C(=O)N2CCc3ncc(C(F)(F)F)cc3C2)C1 (mixture of isomers)
  IC50: 33 nM
